AlphaSeq binding of Ab-14 light chain variants to a spike HR2 peptide

Source: Engelhart et al. 2022 (doi:10.1038/s41597-022-01779-4), MIT Lincoln Laboratory and A-Alpha Bio; data file from the FLAb repository.

Antigen: PDVDLGDISGINAS, a 14-residue peptide of the SARS-CoV-2 spike HR2 region.

Ab-14 is the parent antibody, in scFv form: VH, then three GGGGS repeats, then VL. The heavy chain is unchanged in all variants.
VH: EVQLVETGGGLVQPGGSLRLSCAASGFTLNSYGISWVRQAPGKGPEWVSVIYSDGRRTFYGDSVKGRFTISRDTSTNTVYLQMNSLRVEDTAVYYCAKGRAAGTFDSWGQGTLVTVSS
VL: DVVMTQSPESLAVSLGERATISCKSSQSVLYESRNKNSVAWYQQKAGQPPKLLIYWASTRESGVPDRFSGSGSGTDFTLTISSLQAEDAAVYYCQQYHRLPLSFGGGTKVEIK

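Phage display of a naive human antibody library on the peptide gave the parent. Variants in AAYL50 differ from the parent at up to three CDR positions; double and triple changes were sampled at random. AlphaSeq pools MATa yeast showing the antibodies with MATalpha yeast showing the peptide. Pairs that bind mate more often; barcode pairs of the diploids are counted by sequencing. The ratio of observed to expected reads was calibrated, replicate by replicate, on BCL2-family standards whose Kd was known from biolayer interferometry. Mating was done three times.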

The whole VL of each variant is written out.
Numbers give log10(Kd / nM), so 0 is 1 nM and 3 is 1 µM. Smaller is tighter.
Averages over replicates are reported, and they cover detected replicates only.
An entry "no signal" has no value in the source: the pair was not observed among the diploids in any replicate. This suggests poor binding but is not conclusive.
As a blank, each scFv also met three strains without target: over library AAYL50, 18% of these pairings were detected, typically at 4.19 and seldom below 2.99.

mean log10 Kd (nM),detected,VL
1.79,3/3,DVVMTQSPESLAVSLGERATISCKSSQSVLYESRNKNSVAWYQQKAGQPPKLLIYWASERESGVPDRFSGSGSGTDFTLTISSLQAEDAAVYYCQRYHRLPPSFGGGTKVEIK
3.24,1/3,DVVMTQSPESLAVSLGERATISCKSSQSVLYESRNKWSVAWYQQKAGQPPKLLIYWASTRESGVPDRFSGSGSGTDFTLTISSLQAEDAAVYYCQQYHRLRLSFGGGTKVEIK
5.11,1/3,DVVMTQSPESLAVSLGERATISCKSSQSVLYTSRNKNSVAWYQQKAGQPPKLLIYWASTRESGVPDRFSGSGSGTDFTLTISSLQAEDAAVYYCFQYCRLPLSFGGGTKVEIK
0.53,3/3,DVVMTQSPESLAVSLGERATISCKSSDSGLYTSRNKNSVAWYQQKAGQPPKLLIYWASTRESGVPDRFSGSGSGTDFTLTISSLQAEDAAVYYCQQYHRLPLSFGGGTKVEIK
1.77,3/3,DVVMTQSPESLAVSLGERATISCKSSQSVLYESRNKWSVAWYQQKAGQPPKLLIYWASTRESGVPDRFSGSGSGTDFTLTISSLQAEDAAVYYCQQYHRLPLVFGGGTKVEIK
3.99,1/3,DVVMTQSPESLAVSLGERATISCKSSQSVLYESHNKNSVRWYQQKAGQPPKLLIYWASTREGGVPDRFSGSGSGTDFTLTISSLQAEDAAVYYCQQYHRLPLSFGGGTKVEIK
no signal,0/3,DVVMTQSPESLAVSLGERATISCKSSQSVLYESRNKNSVAWYQQKAGQPPKLLIYWASTRWSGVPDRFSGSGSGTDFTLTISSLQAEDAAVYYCMQYHRLHLSFGGGTKVEIK
0.02,3/3,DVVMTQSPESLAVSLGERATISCKSSQSILYESRNKNSVAWYQQKAGQPPKLLIYKASTRESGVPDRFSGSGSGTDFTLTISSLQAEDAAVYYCQQYKRLPLSFGGGTKVEIK
0.70,3/3,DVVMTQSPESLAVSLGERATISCKSSQSVLQESAQKNSVAWYQQKAGQPPKLLIYWASTRESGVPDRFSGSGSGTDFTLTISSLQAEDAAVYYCQQYHRLPLSFGGGTKVEIK
2.50,1/3,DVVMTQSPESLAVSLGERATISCKSSQSVLYESRNKNSVAWYQQKAGQPPKLLIYWYSTRESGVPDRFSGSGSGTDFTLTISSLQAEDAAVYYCAQYHRLHLSFGGGTKVEIK
1.97,3/3,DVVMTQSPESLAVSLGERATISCKSSQSVLLESRNKNSVAWYQQKAGQPPKLLIYWASTRESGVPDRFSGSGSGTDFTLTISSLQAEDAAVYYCQQAHRLPLFFGGGTKVEIK
no signal,0/3,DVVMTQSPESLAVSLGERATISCKSSQSVLYESRNKNSVAWYQQKAGQPPKLLIYWASTRMDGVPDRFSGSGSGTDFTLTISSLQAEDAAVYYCQQYHRLPLVFGGGTKVEIK
2.05,3/3,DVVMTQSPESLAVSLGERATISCKSSQSHLYESRNKNSVAWYQQKAGQPPKLLIYWASARESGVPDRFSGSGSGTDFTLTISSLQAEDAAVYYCQQYHRLPLSFGGGTKVEIK
no signal,0/3,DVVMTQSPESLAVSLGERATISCRSSQSVLYESRNKNSVAWYQQKAGQPPKLLIYWASTRESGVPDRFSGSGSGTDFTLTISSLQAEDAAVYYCCQYHRGPLSFGGGTKVEIK
no signal,0/3,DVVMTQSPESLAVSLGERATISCKSSNSVLYESRNKISVAWYQQKAGQPPKLLIYWASTRESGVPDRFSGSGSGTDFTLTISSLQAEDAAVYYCQQMHRLPLSFGGGTKVEIK
no signal,0/3,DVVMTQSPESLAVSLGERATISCKISQSVLYELRNKNSVAWYQQKAGQPPKLLIYWASTSESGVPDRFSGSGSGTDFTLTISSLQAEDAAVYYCQQYHRLPLSFGGGTKVEIK

3 of these entries, quoted again:

VL,mean log10 Kd (nM),detected
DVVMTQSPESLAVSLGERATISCRSSQSVLYESRNKNSVAWYQQKAGQPPKLLIYWASTRESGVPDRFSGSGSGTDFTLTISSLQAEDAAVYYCCQYHRGPLSFGGGTKVEIK,no signal,0/3
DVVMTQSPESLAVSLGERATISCKSSQSVLYESRNKWSVAWYQQKAGQPPKLLIYWASTRESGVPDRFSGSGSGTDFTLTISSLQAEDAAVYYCQQYHRLRLSFGGGTKVEIK,3.24,1/3
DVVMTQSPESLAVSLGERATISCKSSQSVLYESRNKNSVAWYQQKAGQPPKLLIYWASTRWSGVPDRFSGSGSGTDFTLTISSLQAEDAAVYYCMQYHRLHLSFGGGTKVEIK,no signal,0/3

Parent in this assay: reference entry 0.65, copy in this library 1.68.